Assay [1] concerns the target T1, Peptidyl-prolyl cis-trans isomerase B (Homo sapiens, UniProt P23284). The assay can be described thus: Binding affinity to Cyclophilin B (unknown origin) by surface plasmon resonance analysis.
Assay [2] concerns the target T2, Peptidyl-prolyl cis-trans isomerase A (Homo sapiens, UniProt P62937). The conditions noted are these: 0.625 nM.
In assay [3] the target is T1, Peptidyl-prolyl cis-trans isomerase B. The conditions noted are these: 10 to 30 uM.
Assay [4] deals with T2, Peptidyl-prolyl cis-trans isomerase A.

Chains of the proteins cited; added tags and fusions are not shown. Lines headed by an entry give the natural chain unless they say otherwise; changes in a name come on top.
UniProt P23284: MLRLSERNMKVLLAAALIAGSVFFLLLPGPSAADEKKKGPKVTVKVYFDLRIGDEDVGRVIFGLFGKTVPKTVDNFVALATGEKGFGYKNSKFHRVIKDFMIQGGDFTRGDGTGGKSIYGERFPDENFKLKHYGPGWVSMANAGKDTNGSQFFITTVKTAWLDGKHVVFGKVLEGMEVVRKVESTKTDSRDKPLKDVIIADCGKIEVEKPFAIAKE
UniProt P62937, whole entry, looked up: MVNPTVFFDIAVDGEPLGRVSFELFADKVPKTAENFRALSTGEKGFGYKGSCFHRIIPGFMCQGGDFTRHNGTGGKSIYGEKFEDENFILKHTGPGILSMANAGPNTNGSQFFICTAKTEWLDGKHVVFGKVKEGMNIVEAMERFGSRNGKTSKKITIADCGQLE

Structures are written as SMILES.

In the case of `COc1cc(C(C(=O)NC2CCCCC2)N(C(=O)Cc2c[nH]c3ccccc23)c2ccc(C(C)C)cc2)cc(OC)c1OC` (centres undefined), the Ka in assay [1] is 455 M⁻¹ s⁻¹; in assay [2] it was 3.2 ×10³ /M/s; in assay [3], 213 M⁻¹ s⁻¹; in assay [4], 8.1 ×10³ /M/s.

(Values after ChEMBL document CHEMBL3751796, “Structure-Based Discovery of Novel Cyclophilin A Inhibitors for the Treatment of Hepatitis C Virus Infections” (J Med Chem, 2015).)
